As usually defined, the IC50 is the point on the concentration scale where inhibition reaches its midpoint.

Chains of the proteins cited; added tags and fusions are not shown.
UniProt Q8VDG7, whole entry: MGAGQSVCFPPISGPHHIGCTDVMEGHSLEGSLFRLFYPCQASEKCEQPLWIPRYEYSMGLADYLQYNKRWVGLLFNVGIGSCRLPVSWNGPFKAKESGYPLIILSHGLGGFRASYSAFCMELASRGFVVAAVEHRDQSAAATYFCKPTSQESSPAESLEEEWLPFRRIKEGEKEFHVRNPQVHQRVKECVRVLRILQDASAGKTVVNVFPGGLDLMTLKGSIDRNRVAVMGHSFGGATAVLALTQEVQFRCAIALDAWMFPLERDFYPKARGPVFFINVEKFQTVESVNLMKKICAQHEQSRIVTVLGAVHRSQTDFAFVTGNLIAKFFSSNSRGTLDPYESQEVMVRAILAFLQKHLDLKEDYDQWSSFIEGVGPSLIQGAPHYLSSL

Here are results for 1 compound from patent publication US9108930B2, “N1- and N2-carbamoyl-1,2,3-triazole serine hydrolase inhibitors and methods” (The Scripps Research Institute, priority 2011, dated 2015).

This test deals with PAFAH2 (Mus musculus, UniProt Q8VDG7). Kind of test: Gel-based competitive ABPP, mouse T-cell proteome in vitro. Format: biochemical. As to conditions: read-out: IC50 for PAFAH2, 30 minutes at 37° C.

On to `O=C(N1CCCC1)n1cc(-c2ccc(-c3ccccc3)cc2)nn1`, for which the IC50 is 6 nM.
